Experiment: Metabolic stability in human liver microsomes assessed as half life measured for 5 to 60 mins in presence of NADPH by LC-MS/MS analysis
Assay type: ADME, Microsome
Settings: time 5-60 min

O=C(O)Cc1ccccc1Nc1c(Cl)cccc1Cl [DICLOFENAC] gave a t1/2 of 6.2 min.
